Experimental findings from ChEMBL document CHEMBL1146197, “Evolution of TEM-type enzymes: biochemical and genetic characterization of two new complex mutant TEM enzymes, TEM-151 and TEM-152, from a single patient” (Antimicrob Agents Chemother, 2007) are described below.

Assay [1] relates to Escherichia coli. As to the kind of experiment: Activity of Escherichia coli BL21(DE3) beta-lactamase TEM151.
In assay [2] the test system is Escherichia coli. Kind of assay: Activity of Escherichia coli BL21(DE3) beta-lactamase TEM29.
Assay [3] deals with Escherichia coli. As to the kind of experiment: Activity of Escherichia coli BL21(DE3) beta-lactamase TEM152.
Assay [4] has as its system Escherichia coli. As to the kind of experiment: Activity of Escherichia coli BL21(DE3) beta-lactamase TEM28.
In assay [5] the test system is Escherichia coli. Kind of assay: Activity of Escherichia coli BL21(DE3) beta-lactamase TEM1.
In assay [6] the test system is Escherichia coli. Kind of assay: Activity of Escherichia coli BL21(DE3) beta-lactamase TEM36.

For the compound `CC1(C)S[C@@H]2[C@H](NC(=O)Cc3ccccc3)C(=O)N2[C@H]1C(=O)O`, the Michaelis constant (Km) in assay [1] came to 25 µM; in assay [2] it was 12 µM; in assay [3], 15 µM; in assay [4], 17 µM; in assay [5] it was 34 µM; in assay [6] it was 60 µM. In addition, the catalytic constant (kcat) was found to be 251 s⁻¹ in assay [1]; 235 s⁻¹ in assay [2]; 196 s⁻¹ in assay [3]; 243 s⁻¹ in assay [4]; 1500 s⁻¹ in assay [5]; 800 s⁻¹ in assay [6]. The kcat/Km turned out to be 1e+07 M⁻¹ s⁻¹ in assay [1]; 1.96e+07 M⁻¹ s⁻¹ in assay [2]; 1.3e+07 M⁻¹ s⁻¹ in assay [3]; 1.43e+07 M⁻¹ s⁻¹ in assay [4]; 4.4e+07 M⁻¹ s⁻¹ in assay [5]; 1.33e+07 M⁻¹ s⁻¹ in assay [6].
